Key:
[1] = target: T1, GCase (Mus musculus, UniProt P17439); experiment: GCase enhancement in tissues of mice after 2-week oral dosing; format: in vivo, mice (C57BL/6); settings: nine doses over 2 weeks
T1 construct: Liver, spleen, lung, and brain tissues were removed; from tissue; host or cells: brain, spleen, liver and lung of wild-type C57BL/6 mice
T1 sequence (P17439 20-515): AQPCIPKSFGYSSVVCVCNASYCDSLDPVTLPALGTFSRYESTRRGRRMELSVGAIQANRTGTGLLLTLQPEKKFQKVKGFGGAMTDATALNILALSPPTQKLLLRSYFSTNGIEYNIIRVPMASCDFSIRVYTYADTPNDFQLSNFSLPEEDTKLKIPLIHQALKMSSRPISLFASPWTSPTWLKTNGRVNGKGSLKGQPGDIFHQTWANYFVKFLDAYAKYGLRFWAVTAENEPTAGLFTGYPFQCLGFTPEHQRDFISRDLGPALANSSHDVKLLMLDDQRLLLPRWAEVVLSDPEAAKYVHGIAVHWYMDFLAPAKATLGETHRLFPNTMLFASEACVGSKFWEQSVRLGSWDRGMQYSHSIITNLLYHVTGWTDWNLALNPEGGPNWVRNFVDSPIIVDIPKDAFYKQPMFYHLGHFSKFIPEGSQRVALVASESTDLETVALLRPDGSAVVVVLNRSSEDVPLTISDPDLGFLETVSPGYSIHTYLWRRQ
Experimental: The ability of orally administered test compounds (the hydrochloride salt form of Compound A and Compound B) to elevate GCase levels as compared to reference compound, IFG-tartrate, was assessed in mice. […] Seven animals were used per dose. The dosing solutions were prepared in water. Compounds were administered over 2 weeks as follows: week 1, Mon-Fri (On), Sat-Sun (Off); week 2, Mon-Thu (On); necropsy on Friday. Thus, a total of 9 doses (dosing solutions prepared fresh every day) were given to each mouse, with a 24-hour washout between the last dose and necropsy.
Plasma was collected by spinning blood at 2700 g for 10 minutes at 4° C. Liver, spleen, lung, and brain tissues were removed, washed in cold PBS, blotted dry, flash frozen on dry ice, and stored at −80° C. until analysis. GCase levels were measured by homogenizing approximately 50 mg tissue in 500 μl McIlvane (MI) buffer (100 mM sodium citrate, 200 mM sodium phosphate dibasic, 0.25% sodium taurocholate, and 0.1% Triton X-100, pH 5.2) at pH 5.2 for 3-5 seconds on ice with a micro homogenizer. Homogenates were then incubated at room temperature without and with 2.5 mM conduritol-B-epoxide (CBE) for 30 min. Finally, 3.7 mM 4-methylumbeliferryl-β-glucoside (4-MUG) substrate was added and incubated at 37° C. for 60 min. Reactions were stopped by addition of 0.4 M glycine, pH 10.6. Fluorescence was measured on a plate reader for 1 sec/well using 355 nm excitation and 460 nm emission. Total protein was determined in lysates using the MicroBCA kit according to the manufacturer's instructions. A 4-methylumbelliferone (4-MU) standard curve ranging from 1.0 nM to 50 μM was run in parallel for conversion of raw fluorescence data to absolute GCase activity (in the presence and absence of CBE) and expressed as nanomoles of 4-MU released per milligram of protein per hour (nmol/mg protein/hr). GCase levels and protein levels were calculated using Microsoft Excel (Redmond, Wash.) and GraphPad Prism version 4.02.

[2] = target: T2, GCase (Homo sapiens, UniProt P04062); experiment: GCase activity enhancement (EC50, Emax; Table 2B); format: cell-based; settings: hydrochloride
T2 sequence (P04062 40-536): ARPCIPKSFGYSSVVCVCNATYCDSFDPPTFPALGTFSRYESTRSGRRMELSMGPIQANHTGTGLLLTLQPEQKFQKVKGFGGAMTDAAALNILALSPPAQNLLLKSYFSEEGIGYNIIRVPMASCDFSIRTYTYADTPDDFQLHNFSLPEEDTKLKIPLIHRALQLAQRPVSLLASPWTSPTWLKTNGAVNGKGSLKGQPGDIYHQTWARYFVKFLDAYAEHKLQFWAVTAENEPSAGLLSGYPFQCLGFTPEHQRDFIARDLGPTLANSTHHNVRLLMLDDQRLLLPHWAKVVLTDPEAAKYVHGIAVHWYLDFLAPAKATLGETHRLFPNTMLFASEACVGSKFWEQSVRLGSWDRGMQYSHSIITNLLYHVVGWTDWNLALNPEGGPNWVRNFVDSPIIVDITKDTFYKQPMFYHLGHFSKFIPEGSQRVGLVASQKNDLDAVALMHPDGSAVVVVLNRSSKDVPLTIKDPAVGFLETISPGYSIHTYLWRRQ

SMILES | GCase increase (-fold) ([1]; brain, 10 mg/kg p.o., Table 3A) | GCase increase (-fold) ([1]; brain, 100 mg/kg p.o., Table 3A) | GCase increase (-fold) ([1]; spleen, 10 mg/kg p.o., Table 3B) | GCase increase (-fold) ([1]; spleen, 100 mg/kg p.o., Table 3B) | Emax [2] | Emax ([2]; listed as Compound A-HCl*)
O[C@@H]1CNCC(CF)[C@H]1O (stereo in doubt) [Compound A, (3R,4R,5R)-5-(fluoromethyl)piperidine-3,4-diol] | 2.5 -fold | 3.5 -fold | 1.9 -fold | 2.8 -fold | – | –
Cl.O[C@@H]1[C@@H](CF)CNC[C@H]1O [Compound A-HCl, (3R,4R,5R)-5-(fluoromethyl)piperidine-3,4-diol hydrochloride] | – | – | – | – | 96.8 ± 7.7% | 104 ± 4.58%

— patent publication US20100261753A1, “METHODS FOR PREVENTING AND/OR TREATING DEGENERATIVE DISORDERS OF THE CENTRAL NERVOUS SYSTEM” (AMICUS THERAPEUTICS, INC., priority 2009, published 2010)
